Values of other authors in patent publication US10273264B2, “Cortistatin analogues and syntheses and uses thereof” (President and Fellows of Harvard College, priority 2015, dated 2019).

Amino acid sequences for entries named in this document (tags omitted). A change or cut given only in a name is not applied to a line headed by its entry.
UniProt P49336: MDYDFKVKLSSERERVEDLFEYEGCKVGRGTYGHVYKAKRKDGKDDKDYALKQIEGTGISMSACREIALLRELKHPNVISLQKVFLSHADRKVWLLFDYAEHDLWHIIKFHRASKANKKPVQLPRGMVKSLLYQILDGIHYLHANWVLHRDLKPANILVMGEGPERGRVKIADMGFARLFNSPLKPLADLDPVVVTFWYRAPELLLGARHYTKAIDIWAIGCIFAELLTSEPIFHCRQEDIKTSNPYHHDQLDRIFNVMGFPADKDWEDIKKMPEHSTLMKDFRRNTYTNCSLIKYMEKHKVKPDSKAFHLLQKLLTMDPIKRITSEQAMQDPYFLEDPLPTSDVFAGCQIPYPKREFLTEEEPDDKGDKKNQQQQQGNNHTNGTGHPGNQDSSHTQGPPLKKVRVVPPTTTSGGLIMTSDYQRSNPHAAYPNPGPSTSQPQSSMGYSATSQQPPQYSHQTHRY

Experiments:
CDK8 [1] = target: T1, CDK8 (Homo sapiens, UniProt P49336); settings: as described in PCT/US2014/72365
CDK8 [2] = target: T1, CDK8; settings: reported, Cee et al. and US 20120071477

## cortistatin A
CDK8 [1]
  inhibition of CDK8 kinase activity: inhibits
CDK8 [2]
  binding to CDK8: bind
